Our source for the IC50 values is US7001907B2, “Peptide-containing α-ketoamide cysteine and serine protease inhibitors” (Cephaon, Inc., priority 1997, dated 2006).

Chains of the proteins cited; added tags and fusions are not shown.
UniProt P07384, whole entry: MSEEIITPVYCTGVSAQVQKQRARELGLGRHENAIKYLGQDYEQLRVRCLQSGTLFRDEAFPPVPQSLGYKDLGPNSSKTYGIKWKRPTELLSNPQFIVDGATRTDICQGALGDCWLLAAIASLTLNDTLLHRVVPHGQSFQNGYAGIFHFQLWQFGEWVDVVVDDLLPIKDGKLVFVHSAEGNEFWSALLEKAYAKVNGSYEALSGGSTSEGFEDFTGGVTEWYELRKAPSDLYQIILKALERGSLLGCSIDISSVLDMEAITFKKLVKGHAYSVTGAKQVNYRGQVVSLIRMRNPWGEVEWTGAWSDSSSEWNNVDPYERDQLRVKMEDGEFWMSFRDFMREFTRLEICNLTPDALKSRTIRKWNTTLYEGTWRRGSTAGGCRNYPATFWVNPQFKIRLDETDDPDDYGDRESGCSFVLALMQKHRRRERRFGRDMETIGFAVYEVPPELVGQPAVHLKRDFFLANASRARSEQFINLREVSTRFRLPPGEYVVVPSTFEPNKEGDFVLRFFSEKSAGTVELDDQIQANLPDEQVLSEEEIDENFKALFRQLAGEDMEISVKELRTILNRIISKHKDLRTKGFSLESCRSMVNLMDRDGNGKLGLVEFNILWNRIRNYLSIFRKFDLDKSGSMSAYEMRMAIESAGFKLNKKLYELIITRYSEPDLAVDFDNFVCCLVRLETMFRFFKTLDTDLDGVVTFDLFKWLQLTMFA
UniProt P04632, whole entry partner: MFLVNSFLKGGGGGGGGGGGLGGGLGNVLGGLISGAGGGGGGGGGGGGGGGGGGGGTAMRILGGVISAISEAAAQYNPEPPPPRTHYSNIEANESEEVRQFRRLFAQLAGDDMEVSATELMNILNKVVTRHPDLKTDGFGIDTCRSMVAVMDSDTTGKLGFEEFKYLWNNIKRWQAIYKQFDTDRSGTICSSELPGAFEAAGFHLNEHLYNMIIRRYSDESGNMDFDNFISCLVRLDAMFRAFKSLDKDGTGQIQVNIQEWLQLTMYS

For one assay, the target named is Recombinant human calpain I (Homo sapiens, UniProt P07384). The assay is described as follows: Inhibition of cysteine protease activity: calpain I, Succ-Leu-Tyr-MNA substrate hydrolysis. The note with it: read-out: Calpain IC50 nM; Table 2, linear α-ketoamides.
As a reminder, the IC50 is the concentration that inhibits the measured activity by half. Take `COCC(NC(=O)[C@@H](COCc1ccccc1)NS(C)(=O)=O)C(=O)C(=O)NCCNS(=O)(=O)c1ccc(-c2ccccn2)s1` (stereo partly shown): the IC50 was 14 nM.

Staying with this assay, now noted: read-out: Calpain IC50 nM; Table 4, α-ketoamides.
As to `CS(=O)(=O)N[C@H](COCc1ccccc1)C(=O)N[C@@H](Cc1ccccc1)C(=O)C(=O)NCCNS(=O)(=O)c1ccc(CN2CCN(c3ncccn3)CC2)cc1`, the IC50 is 24 nM.

In the case of `CN(CCNC(=O)C(=O)[C@H](Cc1ccccc1)NC(=O)[C@@H](COCc1ccccc1)NS(C)(=O)=O)S(=O)(=O)c1ccc(-c2ccon2)s1`, the IC50 is 21 nM.

Take `CC(=O)c1ccc(N2CCN(Cc3ccc(S(=O)(=O)NCCNC(=O)C(=O)C(Cc4ccccc4)NC(=O)[C@@H](COCc4ccccc4)NS(C)(=O)=O)cc3)CC2)cc1` (stereo partly shown): the IC50 amounted to 11 nM.

On to `CS(=O)(=O)N[C@H](COCc1ccccc1)C(=O)NC(Cc1ccccc1)C(=O)C(=O)NCCNS(=O)(=O)c1ccc(-c2cccc(CO)c2)s1` (stereo partly shown), for which the IC50 turned out to be 35 nM.

As for `CONS(=O)(=O)CCCNC(=O)C(=O)[C@H](Cc1ccccc1)NC(=O)[C@@H](COCc1ccccc1)NS(C)(=O)=O`, the IC50 was determined as 87 nM.

Turning to `CON(C)Cc1ccc(S(=O)(=O)NCCNC(=O)C(=O)C(Cc2ccccc2)NC(=O)[C@@H](COCc2ccccc2)NS(C)(=O)=O)cc1` (stereo partly shown), the IC50 was determined as 21 nM.

For the compound `CC(=O)N1CCN(Cc2ccc(S(=O)(=O)NCCNC(=O)C(=O)[C@H](Cc3ccccc3)NC(=O)[C@@H](COCc3ccccc3)NS(C)(=O)=O)cc2)CC1`, the IC50 was 14 nM.

`CS(=O)(=O)N[C@H](COCc1ccccc1)C(=O)N[C@@H](Cc1ccccc1)C(=O)C(=O)NCCN1C(=O)c2ccccc2S1(=O)=O`: the IC50 was 48 nM.

For the compound `CS(=O)(=O)N[C@H](COCc1ccccc1)C(=O)N[C@@H](Cc1ccccc1)C(=O)C(=O)NCCNS(=O)(=O)c1ccc(CN2CCN(Cc3ccccc3)CC2)cc1`, the IC50 worked out at 23 nM.

On to `CS(=O)(=O)N[C@H](COCc1ccccc1)C(=O)NC(Cc1ccccc1)C(=O)C(=O)NCCNS(=O)(=O)c1ccc(CN2CCN(c3ccccn3)CC2)cc1` (stereo partly shown), for which the IC50 was 21 nM.

In the case of `CC(=O)Nc1ccc(OCc2ccc(S(=O)(=O)NCCNC(=O)C(=O)[C@H](Cc3ccccc3)NC(=O)[C@@H](COCc3ccccc3)NS(C)(=O)=O)cc2)cc1`, the half-maximal inhibitory concentration (IC50) was 14 nM.

As for `C[C@H](OCc1ccccc1)[C@@H](NS(C)(=O)=O)C(=O)NC(Cc1ccccc1)C(=O)C(=O)NCCNS(=O)(=O)c1ccc(-c2cccc(CN3CCOCC3)c2)s1` (stereo partly shown), the IC50 is 23 nM.

Consider `CS(=O)(=O)N[C@H](COCc1ccccc1)C(=O)N[C@@H](Cc1ccccc1)C(=O)C(=O)NCCNS(=O)(=O)c1ccc(CN2CCN(S(C)(=O)=O)CC2)cc1`, for which the IC50 was 37 nM.

Turning to `CS(=O)(=O)N[C@H](COCc1ccccc1)C(=O)N[C@@H](Cc1ccccc1)C(=O)C(=O)NC1CCN(S(=O)(=O)c2ccccc2)CC1`, the IC50 is 32 nM.

Still in this assay, the particulars now being: read-out: Calpain IC50 nM; Table 5, achiral P2 mimetic α-ketoamides.
On to `O=C(NCCNS(=O)(=O)c1ccc(CN2CCN(c3ccccn3)CC2)cc1)C(=O)[C@H](Cc1ccccc1)NC(=O)c1c(Cl)cccc1Cl`, for which the IC50 came to 83 nM.

With `O=C(NCCNS(=O)(=O)c1ccc(-c2ccccn2)s1)C(=O)[C@H](Cc1ccccc1)NC(=O)c1cc(Cl)ccc1Cl`, the IC50 was found to be 68 nM.

For `O=Cc1cccc(-c2ccc(S(=O)(=O)NCCNC(=O)C(=O)[C@H](Cc3ccccc3)NC(=O)c3c(Cl)cccc3Cl)s2)c1`, the IC50 was determined as 21 nM.

With `O=C(NCCNS(=O)(=O)c1ccc(-c2ccccn2)s1)C(=O)[C@H](Cc1ccccc1)NC(=O)c1ccc(Cl)nc1Cl`, the half-maximal inhibitory concentration (IC50) is 80 nM.
